Activity calls are given as the source filed them. The calls are words filed in the database; no cut-off is given here.
Assays:
[1] = tested on: MDA-MB-231; assay: Antiproliferative activity against human MDA-MB-231 cells assessed as reduction in cell growth at 300 uM incubated for 72 hrs in the presence of hypoxic condition by cytofluorimetric analysis; assay type: functional, cell-based
[2] = tested on: U-87 MG; assay: Antiproliferative activity against human U-87MG cells assessed as reduction in cell growth at 0.1 to 1000 incubated for 72 hrs in the presence of hypoxic condition by cytofluorimetric analysis; assay type: functional, cell-based; details: U-87MG ATCC

Row | SMILES | Activity [1] | Activity [2]
1 | NC(=O)C1=C(c2ccccc2)NC(=S)NC1c1ccc(S(N)(=O)=O)cc1 (centres undefined) | inactive | inactive
2 | NC(=O)C1=C(c2ccccc2)NC(=O)NC1c1ccc(S(N)(=O)=O)cc1 (centres undefined) | inactive | inactive

— ChEMBL document CHEMBL5537215, “Benzenesulfonamide decorated dihydropyrimidin(thi)ones: carbonic anhydrase profiling and antiproliferative activity” (RSC Med Chem, 2024)
